For experiment [1], the target named is T1, S1P1 (Homo sapiens, UniProt P21453). Put plainly: S1P1 Binding Assay (33P-S1P competition, CHO membranes). The following applies: read-out: S1P1 B IC50; membranes of CHO cells expressing human S1P1, 33P-S1P ligand. The method, then: Membranes were prepared from CHO cells expressing human S1P1. Cells were dissociated in buffer containing 20 mM HEPES, pH 7.5, 50 mM NaCl, 2 mM EDTA and Protease Inhibitor cocktail (Roche), and disrupted on ice using the Polytron homogenizer. The homogenate was centrifuged at 20,000 rpm (48,000 g) and the supernatant was discarded. The membrane pellets were resuspended in buffer containing 50 mM HEPES, pH 7.5, 100 mM NaCl, 1 mM MgCl2, 2 mM EDTA and stored in aliquots at −80° C. after protein concentration determination.
Membranes (2 μg/well) and 0.03 nM final concentration of ^33P-S1P ligand (1 mCi/ml, American Radiolabeled Chemicals) were added to the compound plates. Binding was performed for 60 min at room temperature, terminated by collecting the membranes onto GF/B filter plates, and radioactivity was measured by TOPCOUNT®. The competition data of the test compounds over a range of concentrations was plotted as percentage inhibition of radioligand specific binding. The IC50 is defined as the concentration of competing ligand needed to reduce specific binding by 50%.
Compounds of the present invention and Comparative Compound A were tested in the S1P1 binding assay described hereinabove and the results rounded to two digits, shown in Table A were obtained. […]

By UniProt entry, the sequences of proteins in these tests, tags left out.
UniProt P21453, whole entry: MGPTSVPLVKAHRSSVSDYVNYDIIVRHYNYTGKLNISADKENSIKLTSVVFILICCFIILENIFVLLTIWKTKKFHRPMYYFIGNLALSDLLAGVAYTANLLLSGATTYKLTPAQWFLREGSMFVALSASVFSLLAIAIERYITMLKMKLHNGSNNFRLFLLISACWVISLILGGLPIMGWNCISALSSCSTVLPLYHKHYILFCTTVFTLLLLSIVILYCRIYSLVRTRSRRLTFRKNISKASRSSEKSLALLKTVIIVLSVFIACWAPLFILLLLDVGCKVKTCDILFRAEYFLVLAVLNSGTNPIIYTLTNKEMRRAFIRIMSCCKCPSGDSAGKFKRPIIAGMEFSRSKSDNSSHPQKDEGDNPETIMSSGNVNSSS
UniProt Q99500, whole entry: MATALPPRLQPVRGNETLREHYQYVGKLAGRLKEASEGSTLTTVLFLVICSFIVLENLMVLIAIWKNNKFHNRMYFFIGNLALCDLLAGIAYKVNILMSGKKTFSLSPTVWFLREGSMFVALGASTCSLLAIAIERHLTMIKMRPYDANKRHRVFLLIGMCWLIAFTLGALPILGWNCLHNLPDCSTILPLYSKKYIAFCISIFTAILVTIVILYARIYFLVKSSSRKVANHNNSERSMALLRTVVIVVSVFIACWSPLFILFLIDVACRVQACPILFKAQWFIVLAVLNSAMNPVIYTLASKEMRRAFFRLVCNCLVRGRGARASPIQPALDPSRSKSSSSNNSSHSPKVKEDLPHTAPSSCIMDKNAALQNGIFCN

For experiment [2], the target named is T1, S1P1. Put plainly: Method A: Receptor [35S] GTPγS Binding Assay, S1P1. How it is done:
(§1) Method A: Receptor [35S] GTPγS Binding Assays
(§2) Compounds were loaded in a 384 FALCON® v-bottom plate (0.5 μl/well in a 3-fold dilution). Membranes prepared from S1P1/CHO cells or EDG3-Gal5-bla HEK293T cells were added to the compound plate (40 μl/well, final protein 3 μg/well) with MULTIDROP®. [^35S]GTP (1250 Ci/mmol, Perkin Elmer) was diluted in assay buffer: 20 mM HEPES, pH7.5, 10 mM MgCl2, 150 mM NaCl, 1 mM EGTA, 1 mM DTT, 10 μM GDP, 0.1% fatty acid free BSA, and 10 μg/ml Saponin to 0.4 nM. 40 μl of the [^35S] GTP solution was added to the compound plate with a final concentration of 0.2 nM. The reaction was kept at room temperature for 45 min. At the end of incubation, all the mixtures in the compound plate were transferred to a 384 well FB filter plates via GPCR robot system. The filter plate was washed with water 4 times by using the modified manifold Embla plate washer and dried at 60° C. for 45 min. 30 μA of MicroScint 20 scintillation fluid was added to each well for counting at Packard TOPCOUNT®. EC50 is defined as the agonist concentration that corresponds to 50% of the Ymax (maximal response) obtained for each individual compound tested.
(§3) Compounds of the present invention and Comparative Compound A were tested in the Receptor [^35S] GTPγS Binding Assays (Method A) and Receptor [^35S] […]
A general note: GTPγS resists hydrolysis and so accumulates on activated G proteins.

Experiment [3] has as its target S1P3 (Homo sapiens, UniProt Q99500). Put plainly: Method A: Receptor [35S] GTPγS Binding Assay, S1P3. Conditions: read-out: GTPγS S1P3 EC50, EDG3-Gal5-bla HEK293T cell membranes. The method, then:
as §1, §2, §3

Broadly, the IC50 is the concentration needed to halve the response being measured. In general, EC50 refers to the concentration at which the effect is half-maximal. `CCOc1cccc(-n2ncc(-c3nc(-c4ccc(CN5CC(C(=O)O)C5)cc4)no3)c2C(F)(F)F)n1`: the IC50 in experiment [1] was found to be 0.85 nM. In addition, the “GTPγS S1P3/S1P1 (Method A)” value in experiment [2] (ratio of S1P3 EC50 to S1P1 EC50, Method A) is listed as 268. Moreover, the EC50 in experiment [2] (read-out: GTPγS S1P1 EC50, Method A, S1P1/CHO cell membranes) stood at 22 nM; in experiment [3], 5900 nM.

Source of the values: US8389509B2, “Substituted pyrazole compounds” (Bristol-Myers Squibb Company, priority 2009, dated 2013).
